Laboratory results: PubChem BioAssay (NCI)
Some salts or complexes appear as unconnected parts, following the source record.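 How tested: cells in 96-well plates exposed to compound for 48 hours at five concentrations. GI50 = concentration required for 50% inhibition of growth. TGI: concentration producing complete growth inhibition.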

Columns and labels:
Assay in all cases: NCI tumour cell line growth inhibition, 48 h
[1] = tested on: OVCAR-5 ovarian
[2] = tested on: SF-539 CNS
[3] = tested on: 786-0 renal
[4] = tested on: A549 NSCLC
[5] = tested on: M14 melanoma
[6] = tested on: CCRF-CEM leukemia
[7] = tested on: IGROV1 ovarian
[8] = tested on: UO-31 renal
[9] = tested on: HOP-18 NSCLC
[10] = tested on: HCC-2998 colon
[11] = tested on: SK-MEL-28 melanoma
[12] = tested on: NCI-H23 lung
[13] = tested on: HT29 colon
[14] = tested on: KM12 colon
[15] = tested on: NCI-H522 lung
[16] = tested on: OVCAR-4 ovarian
[17] = tested on: NCI-H322M lung
[18] = tested on: UACC-62 melanoma
[19] = tested on: NCI-H460 lung
[20] = tested on: HCT-116 colon
[21] = tested on: DMS 114 small cell lung
[22] = tested on: SNB-19 CNS
[23] = tested on: UACC-257 melanoma
[24] = tested on: SK-MEL-2 melanoma
[25] = tested on: MALME-3M melanoma
[26] = tested on: DMS 273 small cell lung
[27] = tested on: SF-295 CNS
[28] = tested on: ACHN renal
[29] = tested on: HOP-92 NSCLC
[30] = tested on: NCI-H226 lung
[31] = tested on: LOX IMVI melanoma
[32] = tested on: KM20L2 colon
[33] = tested on: RXF 393 renal
[34] = tested on: SNB-78 CNS
[35] = tested on: DLD-1 colon
[36] = tested on: SK-MEL-5 melanoma
[37] = tested on: OVCAR-3 ovarian
[38] = tested on: HL-60(TB) leukemia

`[Au+].[N-]=[N+]=N.c1ccc([PH+](c2ccccc2)c2ccccc2)cc1` gave a GI50 [1] of 15.1 µM, a TGI [1] of 29.2 µM and a GI50 [2] of 10.4 µM. It also gave a TGI [2] of 25.7 µM, a GI50 [3] of 1.79 µM and a TGI [3] of 3.69 µM. It also gave a GI50 [4] of 10.1 µM, a TGI [4] of 50.3 µM and a GI50 [5] of 1.76 µM. The TGI [5] was 4.36 µM, the GI50 [6] was 0.736 µM and the TGI [6] was 3.19 µM. It also gave a GI50 [7] of 2.49 µM, a TGI [7] of 7.19 µM and a GI50 [8] of 12 µM. For the same molecule, the TGI [8] was 24.3 µM, the GI50 [9] was 2.15 µM and the TGI [9] was 4.28 µM. It also gave a GI50 [10] of 9.45 µM, a TGI [10] of 22.4 µM and a GI50 [11] of 1.14 µM. The TGI [11] was 4.49 µM, the GI50 [12] was 2.46 µM and the TGI [12] was 7.73 µM. The GI50 [13] was 9.79 µM, the TGI [13] was 37 µM and the GI50 [14] was 12.5 µM. For the same molecule, the TGI [14] was 40.4 µM, the GI50 [15] was 1.17 µM and the TGI [15] was 2.64 µM. It also gave a GI50 [16] of 1.87 µM, a TGI [16] of 5.55 µM and a GI50 [17] of 15.4 µM. The TGI [17] was 29.5 µM, the GI50 [18] was 1.65 µM and the TGI [18] was 4.45 µM. The GI50 [19] was 17.3 µM, the TGI [19] was 73.4 µM and the GI50 [20] was 3.39 µM. For the same molecule, the TGI [20] was 12.5 µM, the GI50 [21] was 1.57 µM and the TGI [21] was 4.13 µM. For the same molecule, the GI50 [22] was 2.4 µM, the TGI [22] was 7.83 µM and the GI50 [23] was 1.83 µM. It also gave a TGI [23] of 5.94 µM, a GI50 [24] of 2.53 µM and a TGI [24] of 7.7 µM. It also gave a GI50 [25] of 1.52 µM, a TGI [25] of 3.07 µM and a GI50 [26] of 10.5 µM. It also gave a GI50 [27] of 11.7 µM, a TGI [27] of 84.9 µM and a GI50 [28] of 4.45 µM. It also gave a TGI [28] of 11.8 µM, a GI50 [29] of 2.42 µM and a TGI [29] of 5.43 µM. The GI50 [30] was 6.63 µM, the TGI [30] was 20.8 µM and the GI50 [31] was 2.39 µM. For the same molecule, the TGI [31] was 7.73 µM, the GI50 [32] was 9.96 µM and the TGI [32] was 35.5 µM. For the same molecule, the GI50 [33] was 1.16 µM, the TGI [33] was 2.57 µM and the GI50 [34] was 7.31 µM. For the same molecule, the TGI [34] was 69.2 µM, the GI50 [35] was 1.8 µM and the TGI [35] was 4.39 µM. It also gave a GI50 [36] of 1.28 µM, a TGI [36] of 2.88 µM and a GI50 [37] of 2.9 µM. The TGI [37] was 8.04 µM, the GI50 [38] was 2.06 µM and the TGI [38] was 6.05 µM.
